Data on one molecule can be found in patent publication US8642259B2, “Method for identifying substances capable of modulating the activity of a target molecule” (Sanofi-Aventis Deutschland GmbH, priority 2002, dated 2014).

This experiment has as its system human M1 muscarinic receptor, somatostatin receptor 2 and EDG5. The conditions noted are these: mixture of three receptor strains; incubation with ligands 24 h; FIG. 7B.

For `C[N+](C)(C)CCOC(N)=O` [carbachol], the “detection of the agonist in the receptor mixture” value is “can also be detected in the mixture”.
